Earlier results on 1 compound are cited in publication PMC12648288, “Drastic Impact of Donor Substituents on Xanthenes in the PDT of Glioblastoma” (JACS Au, 2025).

For this data set the following is noted: known CNS drug; cited from earlier work.

`CN(C)c1ccc2nc3ccc(=[N+](C)C)cc-3sc2c1` [methylene blue]: the BBB penetration entry is reported as “penetrates through the BBB”.
